What was measured:
NCI-N87 = assay: In vitro cell viability assay ([…] BLUE); format: cell-based; settings: concentration of the mAb for ADCs, day 5 readout
Protocol: (§1) BLUE® Assay (Promega). Before starting the assay, the AF-Lx and AF-Mal were quenched by incubation the compounds with 1 mol equiv. thiourea (2 hours, 37° C.) and n-acetyl-cysteine (30 minutes, 0° C.), respectively. The cells were trypsinized and plated in 96-well, flat-bottomed, tissue culture plates at day 0. On day 1, from the above mentioned compounds serial dilution series (9×4-fold dilutions) were made starting from 10 or 1000 nM (depending on type of cells and compounds) and added to the cells (in case of ADCs, concentration of the mAb was used). On day 5, the […] BLUE® reagent was added and incubated for 2 hours at 37° C., and viable cells were measured with a TeCan plate reader (Tecan Group Ltd.) at 560EX/590EM nm. […] The data were analyzed with Graphpad Prism 5 software.

SK-BR-3 = assay: In vitro cell viability assay ([…] BLUE); format: cell-based
Protocol: as §1

MDA-MB-231 = assay: In vitro cell viability assay ([…] BLUE); format: cell-based; settings: MDA-MB-231, HER2-negative
Protocol: as §1

JIMT-1 = assay: In vitro cell viability assay ([…] BLUE); format: cell-based; settings: JIMT-1, T-DM1-resistant
Protocol: as §1

BT-474 = assay: In vitro cell viability assay ([…] BLUE); format: cell-based
Protocol: as §1

SKOV-3 = assay: In vitro cell viability assay ([…] BLUE); format: cell-based
Protocol: as §1

NCI-N87 tumors = assay: In vivo therapy study, NCI-N87 xenografts; parameters: species or system nude mice; settings: single bolus injection 15 mg/kg
Protocol: (§2) Body weight was measured three times per week and MTD was reached when weight loss was >10% compared with the control mice. […] For this purpose, seven groups of 8 or 9 mice with established NCI-N87 or JIMT-1 xenografts in both flanks were used. […] All mice received an i.p. bolus injection. In the study with the NCI-N87 tumors, Group 1 was the control group and received 100 μL of saline solution. […] In the study with the JIMT-1 tumors, Group 1 was the control group and received 100 μL of saline solution. […] Body weight and tumor volume were measured three times per week up to 4 months after end of treatment.

JIMT-1 tumors = assay: In vivo therapy study, JIMT-1 xenografts; parameters: species or system nude mice; settings: for mice that survived the study: 15 mg/kg, day 125; for tumor growth response, in words: single bolus injection (15 mg/kg; AF conjugates 15 and 30 mg/kg), follow-up to day 125
Protocol: as §2

[1] = system: glutaraldehyde-fixed SKOV cells; assay: Binding assay (immunoreactivity, Lindmo); settings: after conjugation and labelling with 89Zr; comparison of both conjugates
Protocol: After overnight incubation at 4° C., the cell suspension was centrifuged and the specific binding calculated as the ratio of cell-bound radioactivity to the total amount of radioactivity in the assay. This was corrected for nonspecific binding, as determined with a 500-fold excess of nonradioactive trastuzumab. All binding assays were performed in triplicate.

Substance	IC50 (NCI-N87) [pM]	IC50 (SK-BR-3) [pM]	IC50 (MDA-MB-231) [pM]	IC50 (JIMT-1) [pM]	IC50 (BT-474) [pM]	IC50 (SKOV-3) [pM]	time at which tumors started regrowth (NCI-N87 tumors) [days]	mice that survived the study (JIMT-1 tumors)	immunoreactive fraction after radiolabeling [1]	tumor growth response, in words (JIMT-1 tumors)	tumor growth response, in words (NCI-N87 tumors; follow-up to day 125)
AF-Mal-trastuzumab	129	38	> 400000	78	193	36	60	5 out of 9			
^89Zr-DFO-Lx-trastuzumab									similar		
AF-Lx-trastuzumab	134	14	> 400000	28	161	20		7 of the 9		regressed completely and no regrowth was observed up to end of the experiment at day 125	
^89Zr-DFO-trastuzumab									similar		
trastuzumab: mAb obtained from the hospital pharmacy										minimal growth delay	only a delay in growth
